Laboratory results as given in ChEMBL document CHEMBL5528071, “Discovery of Novel Steroid-Based Histamine H3 Receptor Antagonists/Inverse Agonists” (J Med Chem, 2024).

The chains behind the UniProt entries cited, without tags or fusion partners.
UniProt P35367, whole entry: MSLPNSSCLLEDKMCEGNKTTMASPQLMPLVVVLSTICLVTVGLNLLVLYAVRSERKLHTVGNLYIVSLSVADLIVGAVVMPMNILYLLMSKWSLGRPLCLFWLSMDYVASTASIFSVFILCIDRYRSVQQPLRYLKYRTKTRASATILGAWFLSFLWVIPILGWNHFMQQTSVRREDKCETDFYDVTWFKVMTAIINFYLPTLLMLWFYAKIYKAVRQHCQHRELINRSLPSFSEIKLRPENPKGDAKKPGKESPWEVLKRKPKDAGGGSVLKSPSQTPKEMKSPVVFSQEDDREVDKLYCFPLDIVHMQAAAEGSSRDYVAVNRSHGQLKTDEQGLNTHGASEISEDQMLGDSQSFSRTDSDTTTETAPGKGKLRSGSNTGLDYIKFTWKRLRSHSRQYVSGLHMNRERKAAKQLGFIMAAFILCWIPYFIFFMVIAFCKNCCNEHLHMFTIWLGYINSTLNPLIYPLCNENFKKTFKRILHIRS

Biological target: Histamine H1 receptor (Homo sapiens) (UniProt P35367)
Assay: Inhibition of human Histamine H1 receptor at 1 uM relative to control

- inhibition: 65%
Structure (SMILES): C[C@@H]1CCCN1CCCOc1ccc2c(c1)CC[C@H]1C3=CCC(=O)N[C@@]3(C)CC[C@H]21
